Target: T1, DPP-4 (EVs from germfree mice) (Mus musculus, UniProt P28843)
T1 construct: gene Dpp4
Assay: biochemical
Details: read-out: % inhibition at 0.33 μM

By UniProt entry, the sequences of proteins in these tests, tags left out. Where a name states a change or a piece, a line headed by the entry shows the natural chain unless it says otherwise.
UniProt P28843: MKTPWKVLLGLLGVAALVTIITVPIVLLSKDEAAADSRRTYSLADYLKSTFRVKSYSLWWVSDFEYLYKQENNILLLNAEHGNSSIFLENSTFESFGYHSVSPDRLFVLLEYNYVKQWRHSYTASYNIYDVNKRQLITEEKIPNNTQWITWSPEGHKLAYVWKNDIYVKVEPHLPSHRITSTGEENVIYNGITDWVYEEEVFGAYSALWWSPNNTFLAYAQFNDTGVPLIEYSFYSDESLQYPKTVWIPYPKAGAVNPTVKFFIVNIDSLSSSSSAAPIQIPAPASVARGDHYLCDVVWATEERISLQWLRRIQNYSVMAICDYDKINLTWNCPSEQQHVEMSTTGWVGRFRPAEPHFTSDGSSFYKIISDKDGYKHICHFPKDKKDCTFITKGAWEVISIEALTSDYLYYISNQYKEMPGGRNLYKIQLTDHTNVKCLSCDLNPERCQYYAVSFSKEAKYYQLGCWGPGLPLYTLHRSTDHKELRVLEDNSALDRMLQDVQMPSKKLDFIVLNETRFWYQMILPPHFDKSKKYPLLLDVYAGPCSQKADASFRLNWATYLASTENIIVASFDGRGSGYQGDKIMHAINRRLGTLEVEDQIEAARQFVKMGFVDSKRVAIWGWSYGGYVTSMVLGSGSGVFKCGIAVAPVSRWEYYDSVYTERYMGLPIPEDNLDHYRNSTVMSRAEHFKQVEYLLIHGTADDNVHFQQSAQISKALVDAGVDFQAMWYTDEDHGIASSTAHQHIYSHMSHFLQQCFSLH

- inhibition at 0.33 µM: ~80%
SMILES: N#C[C@@H]1CCCN1C(=O)CNC12CC3CC(CC(O)(C3)C1)C2 [vildagliptin]
